Assay [1] deals with human norepinephrine (NE) reuptake transporter (Homo sapiens, UniProt P23975). Description: functional uptake assay, human NE reuptake transporter. The settings on record: read-out: NE IC50 nM; Example 6 summary of selected in vitro data.
Assay [2] concerns the target human dopamine (DA) reuptake transporter (Homo sapiens, UniProt Q01959). Description: functional uptake assay, human DA reuptake transporter. The settings on record: read-out: DA IC50 nM; Example 6 summary of selected in vitro data.
Assay [3] deals with human serotonin (5-HT) reuptake transporter (Homo sapiens, UniProt P31645). Description: functional uptake assay, human 5-HT reuptake transporter. The settings on record: read-out: 5-HT IC50 nM; Example 6 summary of selected in vitro data.

Chains of the proteins cited; added tags and fusions are not shown.
UniProt P23975, whole entry: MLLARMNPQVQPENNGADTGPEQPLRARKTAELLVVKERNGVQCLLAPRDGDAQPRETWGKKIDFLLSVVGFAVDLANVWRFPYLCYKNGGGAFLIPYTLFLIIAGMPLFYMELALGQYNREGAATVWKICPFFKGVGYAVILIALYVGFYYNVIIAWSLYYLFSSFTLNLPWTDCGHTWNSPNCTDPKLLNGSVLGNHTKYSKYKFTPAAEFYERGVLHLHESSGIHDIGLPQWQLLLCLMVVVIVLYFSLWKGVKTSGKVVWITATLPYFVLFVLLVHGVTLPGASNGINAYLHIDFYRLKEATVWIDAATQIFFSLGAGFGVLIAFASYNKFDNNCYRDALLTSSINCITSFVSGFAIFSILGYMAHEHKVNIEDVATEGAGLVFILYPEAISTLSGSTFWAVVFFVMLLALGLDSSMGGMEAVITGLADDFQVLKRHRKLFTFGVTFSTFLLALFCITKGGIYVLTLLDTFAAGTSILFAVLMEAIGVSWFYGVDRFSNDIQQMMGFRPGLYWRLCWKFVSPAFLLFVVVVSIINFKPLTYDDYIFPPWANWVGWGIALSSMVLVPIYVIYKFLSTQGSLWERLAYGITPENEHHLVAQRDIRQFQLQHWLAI
UniProt Q01959, whole entry: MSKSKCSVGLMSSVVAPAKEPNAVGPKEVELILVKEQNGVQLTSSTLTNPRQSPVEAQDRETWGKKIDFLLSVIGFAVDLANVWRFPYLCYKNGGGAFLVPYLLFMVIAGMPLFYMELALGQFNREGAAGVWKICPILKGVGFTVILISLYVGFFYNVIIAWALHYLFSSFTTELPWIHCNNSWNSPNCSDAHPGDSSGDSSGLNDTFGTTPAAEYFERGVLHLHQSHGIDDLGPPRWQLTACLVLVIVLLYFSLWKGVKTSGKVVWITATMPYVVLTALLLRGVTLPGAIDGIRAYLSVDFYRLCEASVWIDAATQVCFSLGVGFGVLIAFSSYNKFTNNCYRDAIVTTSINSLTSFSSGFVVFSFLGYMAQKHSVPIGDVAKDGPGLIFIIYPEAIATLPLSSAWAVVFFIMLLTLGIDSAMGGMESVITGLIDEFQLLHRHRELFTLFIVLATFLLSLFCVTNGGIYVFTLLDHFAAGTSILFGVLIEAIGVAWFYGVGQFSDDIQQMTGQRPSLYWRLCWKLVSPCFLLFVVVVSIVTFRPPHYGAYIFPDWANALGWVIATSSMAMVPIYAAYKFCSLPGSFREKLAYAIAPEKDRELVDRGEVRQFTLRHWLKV
UniProt P31645, whole entry: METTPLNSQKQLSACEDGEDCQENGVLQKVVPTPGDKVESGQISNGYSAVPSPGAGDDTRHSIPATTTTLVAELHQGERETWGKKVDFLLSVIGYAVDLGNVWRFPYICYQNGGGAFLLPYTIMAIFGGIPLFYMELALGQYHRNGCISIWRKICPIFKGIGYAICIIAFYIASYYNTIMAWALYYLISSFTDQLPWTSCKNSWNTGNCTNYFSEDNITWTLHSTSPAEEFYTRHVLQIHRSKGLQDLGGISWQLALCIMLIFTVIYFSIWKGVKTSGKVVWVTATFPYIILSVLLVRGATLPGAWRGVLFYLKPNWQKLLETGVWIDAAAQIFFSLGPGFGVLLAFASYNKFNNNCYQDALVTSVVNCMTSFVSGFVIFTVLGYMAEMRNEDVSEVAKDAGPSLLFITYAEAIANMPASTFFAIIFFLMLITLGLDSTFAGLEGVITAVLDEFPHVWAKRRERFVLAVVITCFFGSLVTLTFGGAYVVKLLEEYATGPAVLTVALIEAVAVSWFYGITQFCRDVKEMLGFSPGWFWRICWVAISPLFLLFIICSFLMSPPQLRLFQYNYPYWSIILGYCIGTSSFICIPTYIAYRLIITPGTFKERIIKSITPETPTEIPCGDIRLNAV

The structures appear in SMILES notation.

Broadly, the IC50 is the point on the concentration scale where inhibition reaches its midpoint. On to `COC1(c2ccc(Cl)c(Cl)c2)CCCCC1CN(C)C` (stereo not drawn), for which the IC50 is 201 to 1000 nM in assay [1], 10 to 200 nM in assay [2] and 2000 to 7000 nM in assay [3].
On the same counts, the results for `CN(C)C[C@@H]1CCCC[C@@]1(O)c1ccc(F)c(Cl)c1` (single isomer, unassigned) are 10 to 200 nM, 201 to 1000 nM and 2000 to 7000 nM.
As to `CN(C)C[C@H]1CCCC[C@]1(O)c1ccc(F)c(Cl)c1` (single isomer, unassigned), the IC50 in assay [1] is 1000 to 5000 nM; in assay [2], 5000 to 10000 nM; in assay [3], 1 to 2000 nM.
As to `CNC[C@@H]1CCCC[C@@]1(OC)c1ccc(Cl)c(Cl)c1` (single isomer, unassigned), the results for the IC50 in assay [1], in assay [2] and in assay [3] were 201 to 1000 nM, 10 to 200 nM and 2000 to 7000 nM, respectively.
On the same counts, the results for `CO[C@@]1(c2ccc(Cl)c(Cl)c2)CCCC[C@H]1CN(C)C` (single isomer, unassigned) are 201 to 1000 nM, 10 to 200 nM and 1 to 2000 nM.
